From article PMC5605198, “MELK is not necessary for the proliferation of basal-like breast cancer cells” (eLife, 2017) come the findings set out here.

Protein sequences, listed by entry. Tags and fused reporters are not part of them. Lines headed by an entry give the natural chain unless they say otherwise; changes in a name come on top.
UniProt Q14680: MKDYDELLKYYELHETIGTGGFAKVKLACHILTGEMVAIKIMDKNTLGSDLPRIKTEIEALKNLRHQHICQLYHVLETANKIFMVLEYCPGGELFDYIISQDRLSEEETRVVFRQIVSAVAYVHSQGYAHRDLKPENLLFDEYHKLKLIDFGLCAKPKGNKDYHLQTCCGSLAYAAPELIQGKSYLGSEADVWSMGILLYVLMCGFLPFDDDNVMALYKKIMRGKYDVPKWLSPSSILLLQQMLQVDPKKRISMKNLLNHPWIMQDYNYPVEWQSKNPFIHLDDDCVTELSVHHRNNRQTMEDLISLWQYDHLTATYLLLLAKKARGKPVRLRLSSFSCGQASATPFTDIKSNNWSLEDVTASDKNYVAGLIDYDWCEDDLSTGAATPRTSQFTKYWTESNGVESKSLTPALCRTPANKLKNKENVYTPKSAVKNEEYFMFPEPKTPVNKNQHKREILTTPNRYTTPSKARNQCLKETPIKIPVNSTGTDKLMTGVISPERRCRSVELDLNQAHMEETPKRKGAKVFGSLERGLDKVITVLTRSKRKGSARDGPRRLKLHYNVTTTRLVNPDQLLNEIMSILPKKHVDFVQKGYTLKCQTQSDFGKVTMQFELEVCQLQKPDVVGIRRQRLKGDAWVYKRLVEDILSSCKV

Where two headings read alike, the source gives them in different places.

This assay has as its target MELK (Homo sapiens, UniProt Q14680). Nature of the assay: Z’-LYTE enzymatic assay. It is filed as biochemical.

`CC(=O)c1cnc2ccc(-c3cc(Cl)c(O)c(Cl)c3)nc2c1N[C@H]1CC[C@H](CN(C)C)CC1` [OTSSP167]: the IC50 was 0.5 nM (Z’-LYTE assay at [ATP]=apparent Km, read-out: Biochemical IC50 MELK); less than 1 nM (measured by Z’LYTE biochemical assay, class symbols in Figure 2C, read-out: Potency (MELK)); 0.5 nM (note column of Table 3, read-out: Note: MELK IC50).
